Values quoted from earlier work in US20130030007A1, “Obesity Small Molecules” (AKRON MOLECULES GMBH, priority 2010, published 2013).
Some compounds may have been tested in ways that are not shown here.

Test system: human ortholog of Drosophila obesity gene
Settings: interaction of the small molecule with the human ortholog(s) / Drosophila gene(s) listed in the same table line; cited from earlier work

Compound: O=[N+]([O-])c1cc([N+](=O)[O-])c(O)c([N+](=O)[O-])c1
- Type: Type of interaction: B
